Source: US20220175768A1, “FGFR TYROSINE KINASE INHIBITORS FOR THE TREATMENT OF UROTHELIAL CARCINOMA” (Janssen Pharmaceutica NV, priority 2019, published 2022)

Details: 8 mg Continuous, Regimen 3 (n = 99)

COc1cc(OC)cc(N(CCNC(C)C)c2ccc3ncc(-c4cnn(C)c4)nc3c2)c1 [erdafitinib, N-(3,5-dimethoxy-phenyl)-N′-(1-methylethyl)-N-[3-(1-methyl-1H-pyrazol-4-yl)quinoxalin-6-yl]ethane-1,2-diamine]
Serious treatment-emergent adverse event: Musculoskeletal and connective tissue disorders: 0 no.
